Results as given in patent US12516130B2, “Single-domain antibody for targeting prostate specific membrane antigen (PSMA)” (NATIONAL INSTITUTE FOR BIOTECHNOLOGY IN THE NEGEV LTD., priority 2019, dated 2026).

Legend:
[1] = tested on: PC3-PIP and PC3-flu cells; experiment: Confocal imaging of NB7cys, DOX and NB7cysDOX internalization; type: cell-based; settings: 15 min, 1.5 μg/ml DOX or molar equivalent
[2] = tested on: PC3-PIP cells; experiment: Mitochondrial potential assay (TMRE); type: cell-based; settings: 24 h, 1.5 μg/ml DOX or equivalent molar amount

B1: NB7cys: NB7 with an added cysteine in the C-terminus (protein)
VHH (part 1 of 2): QVQLQESGGGSVQAGGSLRLSCTAPGYTDSNYYMSWFRQAPGKEREWVAGVNTGRGSTSYADSVKGRFTISQDNAKNTMFLQMNSLKPEDTAIYYCAVAACHFCDSLPKTQDEYILWGQGTQVTVSSAAAYPYDVPDYGS
VHH (part 2 of 2): C
modifications: left off: small tags and cut ends
notes: NB7 with an added cysteine in the C-terminus
- cellular distribution in PC3-PIP and PC3-flu cells [1]: accumulated only in PC3-PIP cells
- mitochondrial membrane potential (TMRE signal) [2]: did not change the TMRE signal
